Laboratory results as given in ChEMBL document CHEMBL5512616, “pH regulators and their inhibitors in tumor microenvironment” (Eur J Med Chem, 2024).

Chains of the proteins cited; added tags and fusions are not shown.
UniProt P19634, whole entry: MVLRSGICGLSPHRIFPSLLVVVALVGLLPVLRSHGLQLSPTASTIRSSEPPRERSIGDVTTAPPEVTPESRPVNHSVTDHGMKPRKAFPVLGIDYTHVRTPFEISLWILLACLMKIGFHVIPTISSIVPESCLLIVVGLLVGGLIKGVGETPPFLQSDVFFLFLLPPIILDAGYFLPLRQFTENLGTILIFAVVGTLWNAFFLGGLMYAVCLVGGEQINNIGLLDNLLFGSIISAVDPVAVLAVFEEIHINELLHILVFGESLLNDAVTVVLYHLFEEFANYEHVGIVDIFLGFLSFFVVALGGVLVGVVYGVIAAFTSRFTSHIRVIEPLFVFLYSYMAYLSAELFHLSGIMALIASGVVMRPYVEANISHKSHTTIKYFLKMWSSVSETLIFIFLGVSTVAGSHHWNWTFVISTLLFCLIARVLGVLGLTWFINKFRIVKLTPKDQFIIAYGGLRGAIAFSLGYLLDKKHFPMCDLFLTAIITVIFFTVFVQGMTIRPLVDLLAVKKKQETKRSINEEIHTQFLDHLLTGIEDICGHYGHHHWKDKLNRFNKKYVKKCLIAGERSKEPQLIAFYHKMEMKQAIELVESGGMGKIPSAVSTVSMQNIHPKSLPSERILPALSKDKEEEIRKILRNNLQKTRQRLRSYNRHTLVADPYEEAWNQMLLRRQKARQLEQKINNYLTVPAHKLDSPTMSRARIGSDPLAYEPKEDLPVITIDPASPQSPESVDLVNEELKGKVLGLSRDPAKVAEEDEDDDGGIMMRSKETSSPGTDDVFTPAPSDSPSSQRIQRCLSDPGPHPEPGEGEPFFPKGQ

Tests used:
[1] = target: T1, Monocarboxylate transporter 1 (Homo sapiens) (UniProt P53985); test: Inhibition of MCT1 (unknown origin) at 50 uM relative to control
T1 sequence (whole entry): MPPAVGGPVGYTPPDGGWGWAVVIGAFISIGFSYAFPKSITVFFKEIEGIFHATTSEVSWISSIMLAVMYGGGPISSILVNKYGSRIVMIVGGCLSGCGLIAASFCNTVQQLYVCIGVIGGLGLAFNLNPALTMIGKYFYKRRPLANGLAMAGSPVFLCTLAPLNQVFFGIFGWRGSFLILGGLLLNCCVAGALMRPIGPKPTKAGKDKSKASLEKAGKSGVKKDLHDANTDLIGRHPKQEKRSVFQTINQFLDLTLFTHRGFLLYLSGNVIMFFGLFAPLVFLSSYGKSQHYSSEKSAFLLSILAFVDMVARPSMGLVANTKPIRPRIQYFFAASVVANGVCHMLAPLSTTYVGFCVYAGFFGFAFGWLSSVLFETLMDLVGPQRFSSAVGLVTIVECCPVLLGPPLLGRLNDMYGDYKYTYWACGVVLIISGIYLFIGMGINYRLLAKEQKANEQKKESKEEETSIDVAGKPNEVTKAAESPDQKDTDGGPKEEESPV

[2] = Inhibition of MCT1 in Xenopus laevis Oocyte by lactate transport assay; type: cell-based
[3] = target: Sodium/hydrogen exchanger 1 (Homo sapiens, UniProt P19634); settings: dose 1.0 µM

SMILES | inhibition [1] [%] | also measured
COc1ccc(-c2cc(=O)c3c(O)cc(O)cc3o2)cc1O | 49.1 | 
O=C(O)Cc1ccccc1Nc1c(Cl)cccc1Cl [DICLOFENAC] |  | IC50 [2]: 1450 nM
O=c1cc(-c2ccc(O)cc2)oc2cc(O)cc(O)c12 | 52.5 | 
O=c1c(O)c(-c2ccc(O)c(O)c2)oc2cc(O)ccc12 | 93.9 | 
O=c1cc(-c2ccccc2)oc2cc(O)cc(O)c12 | 48.6 | 
COCCOc1cccc2c(C(=O)N=C(N)N)cc(-c3ccccc3)nc12 |  | inhibition [3]: 62.9%
O=c1c(O)c(-c2ccc(O)c(O)c2)oc2cc(O)cc(O)c12 | 84.7 | 
O=c1c(O)c(-c2ccc(O)cc2)oc2cc(O)cc(O)c12 | 71.3 | 
